Laboratory results: patent US20120264675A1

The chains behind the UniProt entries cited, without tags or fusion partners. Where a name states a change or a piece, a line headed by the entry shows the natural chain unless it says otherwise.
UniProt P69332: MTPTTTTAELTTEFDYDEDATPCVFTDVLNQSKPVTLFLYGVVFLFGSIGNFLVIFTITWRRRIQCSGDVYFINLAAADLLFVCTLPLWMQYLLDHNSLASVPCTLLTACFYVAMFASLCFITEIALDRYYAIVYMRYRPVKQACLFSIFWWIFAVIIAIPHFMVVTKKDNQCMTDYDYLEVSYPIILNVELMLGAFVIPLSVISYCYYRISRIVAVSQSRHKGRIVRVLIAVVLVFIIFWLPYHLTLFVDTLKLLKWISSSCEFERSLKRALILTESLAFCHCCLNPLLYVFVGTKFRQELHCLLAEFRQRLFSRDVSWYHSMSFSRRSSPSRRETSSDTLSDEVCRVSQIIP

Biological target: HCMV US28 (human cytomegalovirus (HCMV)) (UniProt P69332)
Experiment: cell-based or functional assay

Substance: recombinant human CCL5 (rhCCL5, catalog #278-RN/CF, R&D) (from UniProt P13501 24-91) (ligand)
- Matrigel invasion of US28-transduced glioma cells and primary GBM cultures: 50% and 50 to 60%

Where “and” joins values, the source holds several entries; their conditions need not be identical. Equal entries are not always repeated.
